From patent publication US20250306034A1, “Detection of Liver Disease” (Owlstone Medical Limited, priority 2022, published 2025)

Protein sequences, listed by entry. Tags and fused reporters are not part of them.
UniProt O60218, whole entry: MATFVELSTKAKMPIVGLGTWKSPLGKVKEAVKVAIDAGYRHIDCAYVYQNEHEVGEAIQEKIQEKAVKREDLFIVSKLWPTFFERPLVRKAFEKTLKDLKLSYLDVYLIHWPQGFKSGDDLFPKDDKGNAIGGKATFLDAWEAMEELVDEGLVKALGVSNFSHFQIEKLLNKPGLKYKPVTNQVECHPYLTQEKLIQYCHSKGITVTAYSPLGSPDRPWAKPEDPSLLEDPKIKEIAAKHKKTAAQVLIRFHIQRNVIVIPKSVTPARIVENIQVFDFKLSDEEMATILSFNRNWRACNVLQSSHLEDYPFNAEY

Molecular target: AKR1B10 (Homo sapiens, UniProt O60218)
Conditions: cancer cell line overexpressing AKR1B10

CC(C)=CCCC(C)=CC=O [citral]
bioproduct generation after ablation of AKR1B10 or treatment of the cells with AKRs inhibitors: reduced or absent bioproduct generation
